The values that follow are results of earlier work, collected in PMC5830979, “Preclinical In Vitro and In Vivo Evaluation of [^18F]FE@SUPPY for Cancer PET Imaging: Limitations of a Xenograft Model for Colorectal Cancer” (Contrast Media & Molecular Imaging, 2018).

By UniProt entry, the sequences of proteins in these tests, tags left out.
UniProt P0DMS8, whole entry: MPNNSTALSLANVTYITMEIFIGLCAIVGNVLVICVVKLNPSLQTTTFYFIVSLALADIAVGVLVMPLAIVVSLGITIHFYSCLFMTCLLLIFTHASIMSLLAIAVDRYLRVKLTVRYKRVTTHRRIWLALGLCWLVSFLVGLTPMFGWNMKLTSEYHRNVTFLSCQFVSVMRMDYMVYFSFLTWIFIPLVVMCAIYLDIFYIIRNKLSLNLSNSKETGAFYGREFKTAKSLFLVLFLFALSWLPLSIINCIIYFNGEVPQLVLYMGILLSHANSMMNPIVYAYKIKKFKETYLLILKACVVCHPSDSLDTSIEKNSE

This data set has as its target hA3AR (Homo sapiens, UniProt P0DMS8). Also on record: purchased PerkinElmer, Inc. Waltham, USA; method as in PerkinElmer (manufacturer). As to conditions: radioligand of the assay; ref PerkinElmer (manufacturer); cited from earlier work.

With `CNC(=O)[C@H]1O[C@@H](n2cnc3c(NCc4ccc(N)c(I)c4)ncnc32)[C@H](O)[C@@H]1O` [[^125I]AB-MECA], the Kd was 780 pM.

The term Kd denotes a measure of binding affinity in units of concentration.
